ChEMBL document CHEMBL2412971, “Selective orexin receptor antagonists” (Bioorg Med Chem Lett, 2013)

Chains of the proteins cited; added tags and fusions are not shown.
UniProt O43613, whole entry: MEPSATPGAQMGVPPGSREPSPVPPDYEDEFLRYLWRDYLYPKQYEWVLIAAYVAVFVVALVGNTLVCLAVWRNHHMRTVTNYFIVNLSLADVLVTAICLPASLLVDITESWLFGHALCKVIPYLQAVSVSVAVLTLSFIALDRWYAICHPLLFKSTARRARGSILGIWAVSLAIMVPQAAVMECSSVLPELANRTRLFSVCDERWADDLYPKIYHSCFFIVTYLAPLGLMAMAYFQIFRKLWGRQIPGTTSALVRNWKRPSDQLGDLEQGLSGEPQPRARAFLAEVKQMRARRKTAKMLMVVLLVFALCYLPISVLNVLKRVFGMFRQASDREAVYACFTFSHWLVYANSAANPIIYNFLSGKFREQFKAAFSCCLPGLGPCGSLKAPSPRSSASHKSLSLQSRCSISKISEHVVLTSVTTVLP

Biological target: Orexin/Hypocretin receptor type 1 (Homo sapiens, UniProt O43613)
Experiment: Binding affinity to orexin receptor 1 (unknown origin)

## CNC(=O)[C@@H](c1ccccc1)N1CCc2cc(OC)c(OC)cc2[C@@H]1CCc1ccc(C(F)(F)F)cc1 [ALMOREXANT]
  Ki: 13 nM
